Results: the supplement of paper PMC11403291

By UniProt entry, the sequences of proteins in these tests, tags left out. Where a name states a change or a piece, a line headed by the entry shows the natural chain unless it says otherwise.
UniProt P49841: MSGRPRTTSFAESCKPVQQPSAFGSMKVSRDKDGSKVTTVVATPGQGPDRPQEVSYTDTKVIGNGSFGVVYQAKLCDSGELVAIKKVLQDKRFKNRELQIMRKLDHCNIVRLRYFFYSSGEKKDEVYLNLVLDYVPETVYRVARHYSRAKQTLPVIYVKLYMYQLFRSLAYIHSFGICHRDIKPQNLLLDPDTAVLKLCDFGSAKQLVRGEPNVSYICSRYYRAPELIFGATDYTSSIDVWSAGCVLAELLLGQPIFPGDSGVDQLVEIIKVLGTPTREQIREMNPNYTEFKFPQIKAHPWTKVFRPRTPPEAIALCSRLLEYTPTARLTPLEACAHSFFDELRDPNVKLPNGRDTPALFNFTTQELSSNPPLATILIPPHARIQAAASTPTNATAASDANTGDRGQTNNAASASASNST
UniProt P27361, whole entry: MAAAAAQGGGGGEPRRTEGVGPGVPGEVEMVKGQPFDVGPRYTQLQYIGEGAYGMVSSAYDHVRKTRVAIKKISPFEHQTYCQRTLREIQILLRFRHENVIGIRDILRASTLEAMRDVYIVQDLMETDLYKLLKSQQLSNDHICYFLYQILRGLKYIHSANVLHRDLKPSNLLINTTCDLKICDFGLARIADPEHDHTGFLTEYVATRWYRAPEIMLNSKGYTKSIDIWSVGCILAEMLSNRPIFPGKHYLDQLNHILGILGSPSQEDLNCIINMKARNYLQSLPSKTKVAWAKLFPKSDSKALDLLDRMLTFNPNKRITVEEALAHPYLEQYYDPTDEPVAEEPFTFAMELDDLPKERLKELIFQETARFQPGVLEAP
UniProt P45984: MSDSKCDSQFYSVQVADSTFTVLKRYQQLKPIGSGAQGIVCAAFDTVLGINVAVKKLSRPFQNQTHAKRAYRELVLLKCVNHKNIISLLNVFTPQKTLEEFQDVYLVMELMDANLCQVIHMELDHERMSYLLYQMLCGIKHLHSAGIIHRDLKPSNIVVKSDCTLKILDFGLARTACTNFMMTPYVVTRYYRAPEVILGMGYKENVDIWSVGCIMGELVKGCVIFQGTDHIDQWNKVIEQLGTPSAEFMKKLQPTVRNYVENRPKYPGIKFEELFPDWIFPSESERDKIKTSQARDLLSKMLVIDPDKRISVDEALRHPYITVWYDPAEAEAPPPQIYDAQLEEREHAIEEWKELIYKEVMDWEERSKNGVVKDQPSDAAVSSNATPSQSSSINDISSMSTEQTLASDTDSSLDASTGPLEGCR
UniProt P53350, whole entry: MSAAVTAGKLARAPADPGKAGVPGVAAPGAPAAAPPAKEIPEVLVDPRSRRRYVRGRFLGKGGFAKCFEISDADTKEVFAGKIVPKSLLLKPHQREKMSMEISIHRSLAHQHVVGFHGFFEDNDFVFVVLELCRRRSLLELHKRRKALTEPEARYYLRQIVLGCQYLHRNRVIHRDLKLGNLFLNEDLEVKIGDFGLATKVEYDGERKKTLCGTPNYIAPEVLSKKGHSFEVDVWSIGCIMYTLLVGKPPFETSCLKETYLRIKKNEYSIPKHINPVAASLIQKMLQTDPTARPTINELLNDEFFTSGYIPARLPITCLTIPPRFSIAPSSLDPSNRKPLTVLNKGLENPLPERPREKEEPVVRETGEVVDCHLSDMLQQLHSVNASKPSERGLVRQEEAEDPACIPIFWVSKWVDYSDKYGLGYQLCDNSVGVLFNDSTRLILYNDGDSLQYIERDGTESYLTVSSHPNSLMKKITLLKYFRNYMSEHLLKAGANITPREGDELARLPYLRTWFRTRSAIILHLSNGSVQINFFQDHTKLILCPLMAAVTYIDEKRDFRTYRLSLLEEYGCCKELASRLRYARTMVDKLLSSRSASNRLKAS
UniProt O60307: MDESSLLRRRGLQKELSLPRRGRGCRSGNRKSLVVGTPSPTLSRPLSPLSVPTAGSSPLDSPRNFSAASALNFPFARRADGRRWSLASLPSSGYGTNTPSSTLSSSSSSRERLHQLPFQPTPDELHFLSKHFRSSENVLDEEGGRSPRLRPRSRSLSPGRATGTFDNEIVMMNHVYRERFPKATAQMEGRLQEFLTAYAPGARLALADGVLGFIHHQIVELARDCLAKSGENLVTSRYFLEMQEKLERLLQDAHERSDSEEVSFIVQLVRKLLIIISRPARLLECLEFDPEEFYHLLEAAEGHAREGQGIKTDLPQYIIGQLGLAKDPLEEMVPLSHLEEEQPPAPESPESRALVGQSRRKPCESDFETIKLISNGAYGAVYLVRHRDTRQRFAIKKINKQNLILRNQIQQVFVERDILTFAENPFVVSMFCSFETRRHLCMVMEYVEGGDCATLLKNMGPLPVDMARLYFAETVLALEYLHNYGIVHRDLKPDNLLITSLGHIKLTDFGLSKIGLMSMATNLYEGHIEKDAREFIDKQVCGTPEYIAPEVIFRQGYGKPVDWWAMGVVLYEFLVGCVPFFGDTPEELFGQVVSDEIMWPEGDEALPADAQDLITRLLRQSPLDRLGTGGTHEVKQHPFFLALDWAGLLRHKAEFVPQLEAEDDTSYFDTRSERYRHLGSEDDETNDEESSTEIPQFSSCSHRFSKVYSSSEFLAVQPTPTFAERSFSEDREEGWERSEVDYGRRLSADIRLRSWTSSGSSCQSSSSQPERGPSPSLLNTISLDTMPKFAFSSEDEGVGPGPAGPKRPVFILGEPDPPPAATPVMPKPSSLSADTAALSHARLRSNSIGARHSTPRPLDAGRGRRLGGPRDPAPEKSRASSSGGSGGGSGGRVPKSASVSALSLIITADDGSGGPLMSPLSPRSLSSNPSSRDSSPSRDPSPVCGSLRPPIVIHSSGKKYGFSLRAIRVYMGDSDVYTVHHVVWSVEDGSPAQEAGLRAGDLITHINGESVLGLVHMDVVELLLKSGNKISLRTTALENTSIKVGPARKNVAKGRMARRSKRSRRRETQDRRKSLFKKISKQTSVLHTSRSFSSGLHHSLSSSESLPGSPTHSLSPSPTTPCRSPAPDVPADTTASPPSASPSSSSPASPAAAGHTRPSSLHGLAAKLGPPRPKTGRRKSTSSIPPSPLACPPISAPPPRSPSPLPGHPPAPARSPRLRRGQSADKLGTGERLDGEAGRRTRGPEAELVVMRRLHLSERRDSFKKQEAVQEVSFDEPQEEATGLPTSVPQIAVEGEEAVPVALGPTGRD

Tests used:
Experiment in all cases: apparent dissociation constant pKd app (kinobead competition) (-log10(M)); higher = stronger binding
[1] = target: GSK3B (UniProt P49841)
[2] = target: MAPK3 (UniProt P27361)
[3] = target: T1, MYLK3 (UniProt Q32MK0)
T1 sequence (whole entry): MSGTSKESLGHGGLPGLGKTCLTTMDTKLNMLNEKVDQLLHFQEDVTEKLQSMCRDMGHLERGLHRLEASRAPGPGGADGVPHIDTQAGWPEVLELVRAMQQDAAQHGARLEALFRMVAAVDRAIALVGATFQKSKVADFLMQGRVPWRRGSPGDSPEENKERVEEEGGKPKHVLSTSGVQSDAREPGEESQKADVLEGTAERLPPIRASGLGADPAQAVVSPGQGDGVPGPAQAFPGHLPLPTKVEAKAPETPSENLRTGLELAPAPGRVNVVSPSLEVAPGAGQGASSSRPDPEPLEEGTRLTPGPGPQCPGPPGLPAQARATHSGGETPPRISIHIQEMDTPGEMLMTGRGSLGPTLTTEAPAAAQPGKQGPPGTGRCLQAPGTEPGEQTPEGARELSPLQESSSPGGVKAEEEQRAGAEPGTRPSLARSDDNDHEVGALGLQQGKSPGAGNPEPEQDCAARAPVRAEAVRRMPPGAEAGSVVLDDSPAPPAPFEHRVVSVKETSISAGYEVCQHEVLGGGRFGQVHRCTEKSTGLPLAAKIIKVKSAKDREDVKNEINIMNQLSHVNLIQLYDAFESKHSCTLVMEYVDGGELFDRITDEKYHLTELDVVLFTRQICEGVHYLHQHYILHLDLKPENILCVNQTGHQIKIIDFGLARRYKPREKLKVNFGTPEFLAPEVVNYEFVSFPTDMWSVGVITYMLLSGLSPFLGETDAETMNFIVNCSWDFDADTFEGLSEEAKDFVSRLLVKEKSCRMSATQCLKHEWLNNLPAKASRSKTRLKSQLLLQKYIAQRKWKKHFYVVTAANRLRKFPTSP

[4] = target: MAPK9 (UniProt P45984)
[5] = target: PRKCA (UniProt P17252)
[6] = target: PLK1 (UniProt P53350)
[7] = target: T2, PRKD1 (UniProt Q15139)
T2 sequence (whole entry): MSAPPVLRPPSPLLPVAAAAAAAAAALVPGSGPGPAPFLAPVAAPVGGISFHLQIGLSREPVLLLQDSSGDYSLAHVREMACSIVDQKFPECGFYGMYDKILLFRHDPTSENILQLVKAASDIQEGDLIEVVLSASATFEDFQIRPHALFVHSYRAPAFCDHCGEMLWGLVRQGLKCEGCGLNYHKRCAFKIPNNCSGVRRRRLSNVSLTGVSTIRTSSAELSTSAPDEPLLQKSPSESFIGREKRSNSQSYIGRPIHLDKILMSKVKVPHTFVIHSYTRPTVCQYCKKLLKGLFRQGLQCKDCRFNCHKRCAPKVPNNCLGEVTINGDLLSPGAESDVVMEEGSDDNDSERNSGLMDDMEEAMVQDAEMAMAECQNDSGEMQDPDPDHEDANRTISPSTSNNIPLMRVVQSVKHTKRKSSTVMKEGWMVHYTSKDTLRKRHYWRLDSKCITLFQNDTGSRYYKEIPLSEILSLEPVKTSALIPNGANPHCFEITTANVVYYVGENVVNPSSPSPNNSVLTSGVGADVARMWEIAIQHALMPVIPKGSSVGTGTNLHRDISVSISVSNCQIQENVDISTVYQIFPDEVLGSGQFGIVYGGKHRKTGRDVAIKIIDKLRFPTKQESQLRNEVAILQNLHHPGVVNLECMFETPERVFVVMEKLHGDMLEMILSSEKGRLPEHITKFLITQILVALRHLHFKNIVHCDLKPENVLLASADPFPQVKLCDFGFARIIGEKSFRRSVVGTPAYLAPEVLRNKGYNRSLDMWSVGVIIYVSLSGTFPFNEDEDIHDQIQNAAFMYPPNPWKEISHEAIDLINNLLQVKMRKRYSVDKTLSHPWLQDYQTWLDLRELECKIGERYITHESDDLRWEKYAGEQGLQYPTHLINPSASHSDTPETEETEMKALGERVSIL

[8] = target: MAST3 (UniProt O60307)

apparent dissociation constant pKd app (-log10) [1] | apparent dissociation constant pKd app (-log10) [2] | apparent dissociation constant pKd app (-log10) [3] | apparent dissociation constant pKd app (-log10) [4] | apparent dissociation constant pKd app (-log10) [5] | apparent dissociation constant pKd app (-log10) [6] | apparent dissociation constant pKd app (-log10) [7] | apparent dissociation constant pKd app (-log10) [8] | SMILES
< 4.8 | < 4.5 | < 4.5 | < 5 | < 4.6 | < 4.6 | < 4.6 | < 4.7 | O=C(c1cc(Cc2n[nH]c(=O)c3ccccc23)ccc1F)N1CCN(C(=O)C2CC2)CC1 [Olaparib]
< 4.8 | < 4.5 | < 4.5 | < 5 | < 4.6 | < 4.6 | < 4.6 | < 4.7 | NC(=O)c1cccc2cn(-c3ccc([C@@H]4CCCNC4)cc3)nc12 [Niraparib]
< 4.8 | < 4.5 | < 4.5 | < 5 | < 4.6 | < 4.6 | < 4.6 | < 4.7 | Cn1ncnc1[C@H]1c2n[nH]c(=O)c3cc(F)cc(c23)N[C@@H]1c1ccc(F)cc1 [Talazoparib]
